{
  "source": "patent US6828320B2",
  "about": "“Heterocyclic compounds” (SmithKline Beecham Corporation, priority 1996, dated 2004)",
  "target": "HB4a cell line transformed by over-expression of c-erbB-2 (Homo sapiens, UniProt P04626)",
  "experiment": "Cell proliferation assay, HB4a erbB-2",
  "format": "cell-based",
  "settings": "4 days at 37° C., methylene blue staining",
  "description": "The cell proliferation assay uses an immortalised human breast epithelial cell line (HB4a) which has been transformed by over-expression of c-erbB-2. Growth of these cells in low serum is dependent upon the c-erbB-2 tyrosine kinase activity. […] Cells are plated at 3000/ well in 96-well plates in 0.1 ml medium and allowed to attach overnight. test compound is added in 0.1 ml medium, with a final concentration of 0.5% DMSO, and the plates incubated for 4 days at 37° C. The cells are then examined microscopically for evidence of morphological detransformation and cell mass is estimated by staining with methylene blue and measuring the absorbance at 620 nm. […] Activity against a range of naturally occurring EGFr or c-erbB-2 over-expressing human tumour cell lines (BT474-breast, HN5-head and neck, N87-gastric and Calu3-lung) is assessed with selected compounds by the same methodology.",
  "data": [
    {"substance": "(1-Benzyl-1H-indazol-5-yl)-(6-(5-methanesulphonylmethyl-1,3,4-oxadiazol-2-yl)-quinazolin-4-yl)-amine [Example 44]", "values": [
      {"measurement": "GI50", "result": 1400, "unit": "nM"}
    ]}
  ]
}
